System: human red blood cells
Assay: Red blood cell hemolytic assay
Details: even at a low concentration (range 15.6–1000 µg/mL)

## CC[C@H](C)[C@H](NC(=O)CN)C(=O)NCC(=O)N[C@@H](C)C(=O)N[C@H](C(=O)N[C@@H](CC(C)C)C(=O)N[C@@H](CCCCN)C(=O)N[C@H](C(=O)N[C@@H](CC(C)C)C(=O)N[C@H](C(=O)N[C@H](C(=O)NCC(=O)N[C@@H](CC(C)C)C(=O)N1CCC[C@H]1C(=O)N[C@@H](C)C(=O)N[C@@H](CC(C)C)C(=O)N[C@H](C(=O)N[C@@H](CO)C(=O)N[C@@H](Cc1c[nH]c2ccccc12)C(=O)N[C@H](C(=O)N[C@@H](CCCCN)C(=O)N[C@@H](CCCNC(=N)N)C(=O)N[C@@H](CCCCN)C(=O)N[C@@H](CCCNC(=N)N)C(=O)N[C@@H](CCC(N)=O)C(=O)N[C@@H](CCC(N)=O)C(N)=O)[C@@H](C)CC)[C@@H](C)CC)[C@@H](C)O)[C@@H](C)O)C(C)C)C(C)C [AM-mel]
  hemolysis: complete hemolysis

From paper PMC9774897 (Antibiotics, 2022)
